Laboratory results published in PubChem BioAssay (NCATS).
Only a part is listed here, and it is no random draw. Inconclusive results are not listed. The source made the active and inactive calls. Unless noted, calls come from the whole dose curve; as a rule, active = well fitted curve in the direction sought with a large enough effect; inconclusive = small, poorly fitted or top-dose-only effect, or another doubt; inactive = no such curve, though single readings can be large; an effect the other way counts as inactive or inconclusive.

Sequences of proteins named here, by UniProt entry; tags and fusion partners are left off. A change or cut given only in a name is not applied to a line headed by its entry.
UniProt Q07343: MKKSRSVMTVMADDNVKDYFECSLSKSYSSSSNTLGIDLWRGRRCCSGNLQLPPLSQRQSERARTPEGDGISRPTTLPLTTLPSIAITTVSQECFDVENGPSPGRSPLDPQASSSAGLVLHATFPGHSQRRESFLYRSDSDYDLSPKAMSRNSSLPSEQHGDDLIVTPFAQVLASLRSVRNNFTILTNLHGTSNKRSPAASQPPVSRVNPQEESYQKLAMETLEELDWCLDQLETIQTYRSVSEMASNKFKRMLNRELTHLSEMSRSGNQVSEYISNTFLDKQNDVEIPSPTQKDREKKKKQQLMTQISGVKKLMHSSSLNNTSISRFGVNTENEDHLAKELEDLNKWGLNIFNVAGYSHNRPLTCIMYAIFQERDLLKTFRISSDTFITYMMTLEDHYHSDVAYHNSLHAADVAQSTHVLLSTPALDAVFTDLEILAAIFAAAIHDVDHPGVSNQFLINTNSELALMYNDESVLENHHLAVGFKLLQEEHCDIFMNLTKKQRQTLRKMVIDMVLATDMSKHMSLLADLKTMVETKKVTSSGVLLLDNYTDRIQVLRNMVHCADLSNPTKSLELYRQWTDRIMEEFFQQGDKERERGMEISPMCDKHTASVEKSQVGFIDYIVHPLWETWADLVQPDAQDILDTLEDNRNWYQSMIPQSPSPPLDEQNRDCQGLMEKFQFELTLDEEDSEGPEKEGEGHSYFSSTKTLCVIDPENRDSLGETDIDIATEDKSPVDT
UniProt A8B2U2: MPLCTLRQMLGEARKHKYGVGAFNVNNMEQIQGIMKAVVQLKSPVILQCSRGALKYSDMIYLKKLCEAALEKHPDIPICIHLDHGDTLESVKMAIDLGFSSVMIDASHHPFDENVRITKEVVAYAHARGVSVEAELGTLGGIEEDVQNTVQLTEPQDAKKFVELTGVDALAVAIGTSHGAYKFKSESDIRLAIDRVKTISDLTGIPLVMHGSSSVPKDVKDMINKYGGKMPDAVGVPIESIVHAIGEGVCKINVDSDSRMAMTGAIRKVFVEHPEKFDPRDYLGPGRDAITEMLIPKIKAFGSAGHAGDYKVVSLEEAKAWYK
UniProt P00883: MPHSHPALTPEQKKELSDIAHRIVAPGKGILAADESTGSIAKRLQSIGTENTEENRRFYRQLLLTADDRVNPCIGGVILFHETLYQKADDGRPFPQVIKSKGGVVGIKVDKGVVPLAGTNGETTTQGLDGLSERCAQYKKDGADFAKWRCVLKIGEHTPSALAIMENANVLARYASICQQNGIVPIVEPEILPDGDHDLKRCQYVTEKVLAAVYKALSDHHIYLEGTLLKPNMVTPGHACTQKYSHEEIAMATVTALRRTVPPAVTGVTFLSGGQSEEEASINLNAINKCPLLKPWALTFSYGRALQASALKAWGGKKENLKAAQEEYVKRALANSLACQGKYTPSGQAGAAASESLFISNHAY

Experiments:
[1] = NFAT Signaling Pathway (AID 444; active = well fitted curve in either direction with a large enough effect, not every such curve was filed as active;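 note: carbachol stimulus at about its EC50 of 1 µM final; % is set by controls: 0 for no effect and ±100 for the full control effect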); conditions: Jurkat NFAT-bla M1, carbachol, beta-lactamase ratio, 5 h; at 7.69 µM (top of the series) unless noted
[2] = Stat Signaling Pathway (AID 446; active = well fitted curve in either direction with a large enough effect, not every such curve was filed as active;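 note: ME-180 cervical cancer cells given 40 pM IL-6 alongside compound; SIE-controlled beta-lactamase reporter measured as 460/530 nm FRET emission ratio; % is set by controls: 0 for no effect and ±100 for the full control effect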); conditions: ME-180 (cervical carcinoma) SIE beta-lactamase reporter, IL-6 stimulated, 5 h; at 7.69 µM (top of the series) unless noted
Method in brief: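 Overnight-plated ME-180 cells bearing a STAT Inducible Element beta-lactamase reporter; 5 h co-exposure to compound and 40 pM IL-6; values normalized to 300 pM IL-6 and 125 nM JAK inhibitor controls.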

[3] = molecular target: Mitogen-activated protein kinase 10 (Mus musculus) (UniProt Q61831); test: JNK3 AlphaScreen Assay (AID 530; active = well fitted curve in either direction with a large enough effect, not every such curve was filed as active;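 note: kinase came from lysate of stimulated human HepG2 cells; signal reports phosphorylation of biotinylated GST-cJun 1-79 at Ser73 with 10 µM ATP; % is set by controls: 0 for no effect and ±100 for the full control effect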); conditions: JNK3 lysate, c-Jun phosphorylation; at 11.4 µM (top of the series) unless noted
Method in brief: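 Kinase buffer: 20 mM Tris-HCl pH 7.6, 10 mM MgCl2, 1 mM DTT, 0.1 mM Na3VO4, 0.01% Tween-20; ATP 10 uM. Substrate biotin-GST-cJun(1-79), enzyme from activated HepG2 lysates. Detection by Ser73 phospho-antibody AlphaScreen.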

[4] = molecular target: 3',5'-cyclic-AMP phosphodiesterase 4B (Homo sapiens) (UniProt Q07343); test: qHTS Assay for Inhibitors of PDE-IV (AID 607; active = well fitted activation curve with a large enough effect in the main read-out, with a control signal flat, not every such curve was filed as active; note: % of control where 0% means no effect); conditions: HEK293 ACTOne CNG channel cells, membrane potential fluorescence; at 22.9 µM (top of the series)
Method in brief: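 Live HEK293 cells with a modified cyclic nucleotide-gated (CNG) channel report intracellular cAMP via membrane-potential dye fluorescence (ex 535/em 590 nm). Endogenous PDE-IV was targeted. Compounds were tested at up to 22.9 uM final; RO 20-1724 100 uM served as control.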

[5] = qHTS Assay for Inhibitors of Fructose-1,6-bisphosphate Aldolase from Giardia Lamblia: Giardia lamblia growth inhibition (AID 2785); conditions: Giardia lamblia trophozoite growth inhibition; at 38.3 µM (top of the series); note: % is set by controls: 0 for no effect and ±100 for the full control effect; nearly all actives have a fitted effect of over 70% in size
Method in brief: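 Whole-parasite growth test: Giardia WB trophozoites in TYI-S-33 (pH 7.0), 100 per well, incubated 48 h at 37C with compound. ATP content was read by ATPlite luminescence.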

[6] = qHTS Assay for Inhibitors of Fructose-1,6-bisphosphate Aldolase from Giardia Lamblia: Mammalian cellular toxicity (AID 2786); conditions: mammalian cell viability counter-screen; at 57.5 µM (top of the series);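 note: compound exposure lasted 48 h before reading; % is set by controls: 0 for no effect and ±100 for the full control effect; nearly all actives have a fitted effect of over 60% in size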
Method in brief: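 Mammalian cytotoxicity surrogate: Chinese hamster ovary cells exposed to compound for 48 h at 37 °C. Cellular ATP then measured with ATPlite reagent, 20 min incubation.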

[7] = molecular target: Fructose-bisphosphate aldolase (Giardia intestinalis (strain ATCC 50803 / WB clone C6)) (UniProt A8B2U2); test: qHTS Assay for Inhibitors of Fructose-1,6-bisphosphate Aldolase from Giardia Lamblia: Primary screen confirmation (AID 2787); conditions: purified Giardia aldolase enzyme activity; at 57.5 µM (top of the series);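 note: aldolase product measured through coupled diaphorase step turning resazurin into fluorescent resorufin; % is set by controls: 0 for no effect and ±100 for the full control effect; nearly all actives have a fitted effect of over 45% in size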
Method in brief: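 FBPA (40 nM in enzyme reagent, with 30 uM ZnCl2) was preincubated 10 min at RT with compound up to 57.5 uM final. Substrate plus coupled detection system was then added, and fluorescence (525/598 nm) was read after 20 min at RT.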

[8] = molecular target: Fructose-bisphosphate aldolase A (Oryctolagus cuniculus) (UniProt P00883); test: qHTS Assay for Inhibitors of Fructose-1,6-bisphosphate Aldolase from Giardia Lamblia: Rabbit FBPA Selectivity (AID 2794); conditions: Rabbit muscle FBPA enzyme inhibition, selectivity counter-screen; at 57.5 µM (top of the series); note: % is set by controls: 0 for no effect and ±100 for the full control effect; nearly all actives have a fitted effect of over 60% in size
Method in brief: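 Glyceraldehyde-3-phosphate-coupled detection measures rabbit Class I aldolase turnover via AmpLite Red fluorescence. Compounds (final up to 57.5 uM) preincubated 10 min; signal read 20 min post-substrate at RT.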

[9] = qHTS Assay for Inhibitors of Fructose-1,6-bisphosphate Aldolase from Giardia Lamblia: Coupling assay counterscreen confirmation (AID 2795); conditions: GAPDH coupling enzyme counterscreen, biochemical; at 57.5 µM (top of the series); note: % is set by controls: 0 for no effect and ±100 for the full control effect; nearly all actives have a fitted effect of over 55% in size
Method in brief: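 Setup: coupling enzyme reagent, compound pin-transferred to up to 57.5 uM final. Incubation: 10 min RT, then substrate + AmpLite Red for 20 min RT. Detection: fluorescence 525/598 nm.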

O=C(O)[C@@H](O)c1ccc([As](=O)(O)O)cc1
inactive: activity change, negative = inhibition [1] 8.19% | activity, negative = inhibition [2] -3.15% | activity change, negative = inhibition [3] 0.428% | activation (PDE inhibition) [4] -8.23%

CC(C)(C)C(=O)NC(Sc1ccncn1)C(Cl)(Cl)Cl (centres undefined)
inactive: activity change, negative = inhibition [5] 6.82% | viability change, negative = toxicity [6] 7.38% | activity change, negative = inhibition [7] 3.89% | activity, negative = inhibition [8] 2.5% | activity change, negative = inhibition [9] -0.484%
